According to US9434725B2, “5-azaindazole compounds and methods of use” (priority 2012, dated 2016):
Read-outs that look alike come from different tables or passages of the source.

Amino acid sequences for entries named in this document (tags omitted).
UniProt P11309, whole entry: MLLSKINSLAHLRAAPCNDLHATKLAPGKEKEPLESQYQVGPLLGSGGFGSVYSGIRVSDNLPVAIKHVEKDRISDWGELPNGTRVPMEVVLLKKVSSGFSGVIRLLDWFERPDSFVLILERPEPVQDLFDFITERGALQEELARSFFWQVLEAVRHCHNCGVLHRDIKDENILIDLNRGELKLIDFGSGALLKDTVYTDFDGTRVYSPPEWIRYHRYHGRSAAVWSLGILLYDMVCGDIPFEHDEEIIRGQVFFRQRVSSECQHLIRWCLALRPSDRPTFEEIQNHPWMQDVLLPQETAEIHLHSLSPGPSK

Key:
[1] = molecular target: PIM1 (Homo sapiens (Human), UniProt P11309); format: biochemical; conditions: 10 μM ATP, 90 min, room temperature; read-out: PIM1 LC3K (KI)
Description: A fluorescent-labeled Pim-specific peptide substrate, was custom synthesized by American Peptide Company (Sunnyvale, Calif.). Reaction Buffer contained 10 mM HEPES, pH 7.2, 10 mM MgCl2, 0.01% Tween 20, 2 mM DTT. Termination Buffer contained 190 mM HEPES, pH 7.2, 0.015% Brij-35, 0.2% Coating Reagent 3 (Caliper Life Sciences, Hopkinton, Mass.), 20 mM EDTA. Separation Buffer contained 100 mM HEPES, pH 7.2, 0.015% Brij-35, 0.1% Coating Reagent 3, 1:200 Coating Reagent 8 (Caliper Life Sciences, Hopkinton, Mass.), 10 mM EDTA and 5% DMSO.
PIM reactions were carried out in a final volume of 10 μL per well in a 384-well plate. […] After 90 minutes of incubation at room temperature, the phosphorylation reaction was stopped by the addition of 10 μL Termination Buffer. The product and substrate in each independent reaction were separated on a 12-sipper microfluidic chip (Caliper Life Sciences, Hopkinton, Mass.) run on a Caliper LC3000® (Caliper Life Sciences, Hopkinton, Mass.). The separation of product and substrate was optimized by choosing voltages and pressure using Caliper's Optimizer software (Hopkinton, Mass.). The separation conditions used a downstream voltage of −500V, an upstream voltage of −2150V, and a screening pressure of −1.2 psi. […] Substrate conversion was calculated from the electropherogram using HTS Well Analyzer software (Caliper Life Sciences, Hopkinton, Mass.). Ki values for the test compound were calculated.

[2] = system: BaF3 PIM1 cells; assay: In vitro cell proliferation potency assay (Cell Titer Glo), BaF3 PIM1 cells; format: cell-based, murine; conditions: read-out: Prolif BaF3_PIM 1 (IC50)
Description: BaF3 parental line was obtained from the DSMZ repository. BaF3 lines transfected with PIM1 or PIM2 were generated. Mouse IL-3 was purchased from R&D Systems. G418 was purchased from Clontech. Media for BaF3 parental line contained RPMI, 10% FBS, 2 mM L-Glutamine, 2 ng/mL mIL-3. Media for BaF3 PIM1 & 2 lines contained RPMI, 10% FBS, 2 mM L-Glutamine, […]. Media for MM1.S (multiple myeloma cells) line contained RPMI, 10% FBS, 2 mM L-Glutamine.
BaF3, a murine interleukin-3 dependent pro-B cell line, parental cells, BaF3 PIM1 cells, BaF3 PIM2 cells, and MM1.S (multiple myeloma) cells were seeded at 2 k/well, 5 k/well, 5 k/well, and 10 k/well respectively, in a 384-well plate, at 45 μL/well. Test compound was added at 5 μL/well. BaF3 cells (parental and transfected) were incubated overnight, while MM1.S cells were incubated for 72 hours at 37° C., 5% CO2. CELL TITER GLO® Reagent (Promega) was added at 50 μL/well, the plates were incubated for 30 minutes, and their luminescence read on an HT Analyst. IC50/EC50 values for the test compound were calculated.

[3] = Mus musculus, BaF3, BaF3 cells transfected with PIM1, incubated overnight
[4] = BaF3 cells transfected with PIM1, incubated overnight

Row | Ki [1] | IC50 [2, 3] | IC50 [2, 4] | Compound
1 | 0.16 nM | – | – | CCc1cncc(-c2cc3c(cn2)cnn3-c2cccc(N3CCNC[C@H](O)C3)n2)c1 (single isomer, unassigned) [Compound 121]
2 | 0.056 nM | 71.5 nM | – | CCc1cncc(-c2cc3c(cn2)cnn3-c2cccc(N3CCNC[C@@H](O)C3)n2)c1 (single isomer, unassigned) [Compound 122]
3 | 0.375 nM | – | 2000 nM | Cc1cncc(-c2cc3c(cn2)cnn3-c2cccc(N3CCCC(N)C3C)n2)n1 (single isomer, unassigned) [Compound 203, 2-methyl-1-[6-[6-(6-methylpyrazin-2-yl)pyrazolo[4,3-c]pyridin-1-yl]-2-pyridyl]piperidin-3-amine]
4 | 0.034 nM | – | 693 nM | Cc1cncc(-c2cc3c(cn2)cnn3-c2cccc(N3CCCC(N)C3C)n2)n1 (single isomer, unassigned) [Compound 204, 2-methyl-1-[6-[6-(6-methylpyrazin-2-yl)pyrazolo[4,3-c]pyridin-1-yl]-2-pyridyl]piperidin-3-amine]
5 | 0.048 nM | – | 317 nM | Cc1cncc(-c2cc3c(cn2)cnn3-c2cccc(C3CCCC(N)C3)n2)n1 (single isomer, unassigned) [Compound 213, 3-[6-[6-(6-methylpyrazin-2-yl)pyrazolo[4,3-c]pyridin-1-yl]-2-pyridyl]cyclohexanamine]
6 | 0.032 nM | 1200 nM | – | CC(C)c1cncc(-c2cc3c(cn2)cnn3-c2cccc(N3CCCNCC3)n2)c1 [Compound 103, 1-(6-(1,4-diazepan-1-yl)pyridin-2-yl)-6-(5-isopropylpyridin-3-yl)-1H-pyrazolo[4,3-c]pyridine]
7 | 0.124 nM | 1600 nM | – | CC(C)c1cncc(-c2cc3c(cn2)cnn3-c2cccc(N3CCNCC3)n2)c1 [Compound 105, 6-(5-isopropylpyridin-3-yl)-1-(6-(piperazin-1-yl)pyridin-2-yl)-1H-pyrazolo[4,3-c]pyridine]
8 | – | 2400 nM | – | CC(C)c1cncc(-c2cc3c(cn2)cnn3-c2cccc(N3CCC[C@@H](N)C3)n2)c1 [Compound 107, (R)-1-(6-(6-(5-isopropylpyridin-3-yl)-1H-pyrazolo[4,3-c]pyridin-1-yl)pyridin-2-yl)piperidin-3-amine]
9 | 0.1 nM | 4500 nM | – | CC(C)c1cncc(-c2cc3c(cn2)cnn3-c2cccc(N3CCC[C@H](N)C3)n2)c1 [Compound 108, (3S)-1-[6-[6-(5-isopropyl-3-pyridyl)pyrazolo[4,3-c]pyridin-1-yl]-2-pyridyl]piperidin-3-amine]
10 | 0.225 nM | 1400 nM | – | Cc1cc(-c2cc3c(cn2)cnn3-c2cccc(N3CCCNCC3)n2)sn1 [Compound 120, 5-[1-[6-(1 4-diazepan-1-yl)-2-pyridyl]pyrazolo[4,3-c]pyridin-6-yl]-3-methyl-isothiazole]
11 | 0.033 nM | 2300 nM | – | CCc1cncc(-c2cc3c(cn2)cnn3-c2ccc(C3CC3)c(N3CCC[C@H](N)C3)n2)c1 [Compound 139, (S)-1-(3-cyclopropyl-6-(6-(5-ethylpyridin-3-yl)-1H-pyrazolo[4,3-c]pyridin-1-yl)pyridin-2-yl)piperidin-3-amine]
12 | 0.085 nM | 1000 nM | – | Cc1cncc(-c2cc3c(cn2)cnn3-c2cccc(N3CCCNCC3)n2)c1 [Compound 141, 1-(6-(1,4-diazepan-1-yl)pyridin-2-yl)-6-(5-methylpyridin-3-yl)-1H-pyrazolo[4,3-c]pyridine]
13 | 0.177 nM | 385 nM | – | c1cc(N2CCNCC2)nc(-n2ncc3cnc(-c4cnccn4)cc32)c1 [Compound 144, 1-(6-piperazin-1-yl-2-pyridyl)-6-pyrazin-2-yl-pyrazolo[4,3-c]pyridine]

Row | Compound | Ki [1] | IC50 [2, 3] | IC50 [2, 4]
14 | CCn1cc(-c2cc3c(cn2)cnn3-c2cccc(N3CCNCC3)n2)cn1 [Compound 101, 6-(1-ethylpyrazol-4-yl)-1-(6-piperazin-1-yl-2-pyridyl)pyrazolo[4,3-c]pyridine] | 0.817 nM | 1700 nM | –
